Source: patent US9504738B2, “Immunogenic epitopes, peptidomimetics, and anti-peptide antibodies, and methods of their use” (Ohio State Innovation Foundation, priority 2010, dated 2016)

System: TS/A cells (HER-2 negative)
Assay: Proliferation assay (MTT) of TS/A cells in presence of HRG
Assay type: cell-based, mouse
Settings: HER-2 negative cell line
Method: Proliferation assay. BT-474, SK-BR-3, MDA-468 and TS/A cells (1×10^4 were plated in 96-well flat-bottom plates overnight. Growth medium was replaced with low sera (1% FCS) medium and the cells were incubated overnight. Media were removed from the wells and replaced with low sera medium containing HER-2 and VEGF mimic peptides at concentrations ranging from 25-150 ug/ml and plates were incubated an additional 1 h at 37° C. before adding 10 ng/ml HRG in 1% medium. Plates were incubated for an additional 72 h at 37° C. before adding MTT (5 mg/ml) to each well. Plates were incubated 2 h at 37° C., and 1000 of extraction buffer (20% SDS, 50% dimethylformamide (pH 4.7)) was added to each well. Plates incubated overnight at 37° C. and read on an ELISA reader at 570 nm with 655 nm background subtraction Inhibition percentage was calculated as 100%×(Untreated cells-Peptide treated cells)/(Untreated cells).
Antiproliferative effects of peptides. The antiproliferative effects of the peptides were tested using four different cell lines (Bt-474 and SK-BR-3: HER-2^high, MDA-468: HER-2^low and TS/A: HER-2^negative) (FIGS. 13A-13D) in the presence of HRG to activate the HER-3 receptor. Unlike trastuzumab that is specific to HER-2 positive cells, pertuzumab is known to act on cells by disrupting ligand dependent receptor complexes independent of HER-2/neu expression. […]

For “Trastuzumab: humanized mAb that targets HER-2, positive control [reference compound]”, which “antiproliferative effect on TS/A cells” value is on record?
Its value is “no inhibition”.
